{
  "source": "patent US8555875B2",
  "about": "“Inhalation devices and related methods for administration of sedative hypnotic compounds” (Map Pharmaceuticals, Inc., priority 2008, dated 2013)",
  "origin": "cited, not measured here",
  "conditions": "in vivo",
  "data": [
    {"smiles": "Cc1ccc(-c2nc3ccc(C)cn3c2CC(=O)N(C)C)cc1", "note": "[Zolpidem]", "values": [
      {"measurement": "Half Life", "result": 2, "unit": "h"}
    ]}
  ]
}
